PMC12655733, “Design, Synthesis and Evaluation of the First 2-Alkynyl(aza)indole ^18F Probe Targeting α-Synuclein Aggregates” (Pharmaceuticals, 2025)

Chains of the proteins cited; added tags and fusions are not shown. Residues count along the entry.
UniProt P05067, 672-713: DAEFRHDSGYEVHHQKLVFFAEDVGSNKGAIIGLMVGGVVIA

Biological target: T1, Aβ1-42 fibrils (Homo sapiens, UniProt P05067)
T1 construct: Wild-type α-syn and Aβ1-42 were expressed; made in house; host or cells: Escherichia coli BL21(DE3)
Test: Inhibition of thioflavin T binding to Aβ1-42 fibrils (fluorescence competition), Ki determination
Settings: read-out: KdThT for Aβ1-42 fibrils
Procedure: Wild-type α-syn and Aβ1-42 were expressed in the Escherichia coli strain BL21(DE3) (Stratagene, La Jolla, CA, USA) and purified as described. […] For the Aβ1-42 peptide, the concentration was determined by a fluorometric method using the reactive compound fluorescamine (Sigma, San Jose, CA, USA) that reacts with primary amino groups to form a fluorescent product. The human Tau protein (isoform h2N4RTau) was expressed in the pET11d vector in the Escherichia coli strain BL21(DE3) (Stratagene, La Jolla, CA, USA) and purified as described.
For assembly into fibrils, α-syn was incubated in 50 mM Tris-HCl, pH 7.5, 150 mM KCl at 37 °C under continuous shaking for 4 days. Lyophilized Aβ1-42 was dissolved in 1,1,1,3,3,3-hexafluoro-2-propanol (HFIP) at a concentration of 0.2 mg/mL and incubated for 24 h at 37 °C to achieve complete solubilization. HFIP was evaporated under a nitrogen stream to obtain a dry film. To start assembly into fibrils, the dry peptide was resuspended in PBS pH 7.4, 10% (v/v) DMSO and incubated at 37 °C without shaking for 3 days. […] The images were recorded with a Gatan Orius CCD camera (Gatan, Pleasanton, CA, USA). Finally, the percentage of α-syn or Aβ1-42 aggregated into fibrils was assessed by pelleting fibrils at 40,000× g for 20 min and by determining the concentration of soluble protein/peptide remaining in the supernatant. […]

Cc1ccc2c(c1)sc(-c1ccc(N(C)C)cc1)[n+]2C [ThT, thioflavin T, reference compound]
pKd: 6.30

pKd: −log10 of the molar value.
